Data set [1] is described as follows: Thermogravimetric analysis (TGA). The note with it: 5 °C min^−1, argon. The data set is classed as physicochemical. How it is done:
Thermogravimetric analyses were performed over a temperature range from room temperature to 500 °C in a thermogravimetric analyzer from Setaram Labsys EVO (France) with a weighing precision of ±0.01%. Each run was conducted at a heating rate of 5 °C min^−1, under a highly pure argon atmosphere purged at 50 mL min^−1, with a mass sample between 8 and 10 mg.

The nature of data set [2]: Solubility assays in water, PBS and serum. The data set is classed as physicochemical.

In the case of Choline Levothyroxine [[Ch][T4]], the “ΔTons, onset shifted to lower temperatures vs neat [Na][T4]” value in data set [1] was ~ 50 °C. In data set [2], the “Solubility in PBS 37 °C” value worked out at 0.284 ± 0.017 mg/mL, the “Solubility in Serum 37 °C” value is 0.334 ± 0.005 mg/mL, the “Solubility in Water 25 °C” value was determined as 0.247 ± 0.035 mg/mL and the “Solubility in Water 37 °C” value stood at 0.386 ± 0.015 mg/mL.
